Values quoted from earlier work, collected in US20100078098A1, “GAS GENERATING COMPOSITION FOR INFLATOR CONTAINING MELAMINE CYANURATE” (published 2010).

In the case of `[N-]=[N+]=[N-]`, the “LD50 (oral-rat)” value is listed as 27 mg/kg.

For melamine cyanurate, the “LD50 (oral-rat)” value is given as 2020 mg/kg.
